Measured values from patent US8859580B2 (Boehringer Ingelheim International GmbH, priority 2007, dated 2014).

Amino acid sequences for entries named in this document (tags omitted).
UniProt P28845, whole entry: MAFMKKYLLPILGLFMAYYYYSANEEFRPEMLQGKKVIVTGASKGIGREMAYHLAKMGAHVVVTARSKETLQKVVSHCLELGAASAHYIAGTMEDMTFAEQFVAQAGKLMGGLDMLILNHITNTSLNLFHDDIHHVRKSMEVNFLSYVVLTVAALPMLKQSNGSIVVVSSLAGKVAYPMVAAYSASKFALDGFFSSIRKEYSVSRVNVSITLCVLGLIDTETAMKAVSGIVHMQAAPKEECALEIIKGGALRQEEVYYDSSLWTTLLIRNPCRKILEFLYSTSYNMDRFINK

Target: 11β-HSD1 (Homo sapiens, UniProt P28845)
Assay: In vitro inhibition of 11β-HSD1, HTRF detection of cortisol generated from cortisone by human liver microsomes
Format: biochemical
Settings: read-out: 11β-HSD IC50, 1 hour at 37° C., pH 6.0, NADPH 200 μM, cortisone 80 nM, inhibition relative to carbenoxolone signal
Procedure: Cortisol generated in the reaction is then detected with a competitive immunoassay, involving two HTRF conjugates: cortisol linked to XL665 and anti-cortisol antibody labeled with Europium cryptate. The incubation period for detection reaction was typically 2 hours. […] The ratio of the two emission signals is then calculated (Em665*10000/Em615). […] Each assay also contained a calibration curve with cortisol to transform the fluorescent data into cortisol concentrations. Percent inhibition of each compound was determined relative to the carbenoxolone signal and IC50 curves were generated.

Q: `CC1(C)[C@H]2Cc3cc4nc([C@H]5CCCO5)[nH]c4cc3[C@]1(C)CCN2C(=O)c1ccc2nc[nH]c2c1` was tested. Which IC50 did it give?
A: 61 nM
